# Measurements taken from US5401749A, “9-amino-1,4ethano-1,2,3,4-tetrahydroacridine and related compounds” (Hoechst-Roussel Pharmaceuticals Inc., priority 1988, dated 1995).
# Chains of the proteins cited; added tags and fusions are not shown. Residues count along the entry.
# UniProt P22303, 32-614: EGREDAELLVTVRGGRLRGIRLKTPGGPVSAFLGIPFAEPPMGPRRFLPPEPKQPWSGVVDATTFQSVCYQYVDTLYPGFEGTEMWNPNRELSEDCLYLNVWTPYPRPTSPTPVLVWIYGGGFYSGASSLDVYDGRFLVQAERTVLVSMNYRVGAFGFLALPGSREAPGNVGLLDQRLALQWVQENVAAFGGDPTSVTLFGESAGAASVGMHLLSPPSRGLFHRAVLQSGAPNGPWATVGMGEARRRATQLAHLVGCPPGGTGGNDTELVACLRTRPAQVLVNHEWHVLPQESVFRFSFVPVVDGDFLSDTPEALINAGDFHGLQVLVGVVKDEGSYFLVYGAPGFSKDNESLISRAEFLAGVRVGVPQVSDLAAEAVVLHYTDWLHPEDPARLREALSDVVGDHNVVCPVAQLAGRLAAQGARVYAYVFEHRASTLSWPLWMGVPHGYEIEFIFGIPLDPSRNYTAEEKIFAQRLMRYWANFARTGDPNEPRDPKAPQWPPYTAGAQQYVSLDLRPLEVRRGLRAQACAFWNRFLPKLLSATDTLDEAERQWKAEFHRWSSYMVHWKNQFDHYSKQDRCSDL
# Molecular target: Acetylcholinesterase (Homo sapiens, UniProt P22303)
# Test: Acetylcholinesterase Inhibition Assay (photometric method of Ellman et al.)
# Assay type: biochemical
smiles,measurement,value
"Nc1c2c(nc3ccccc13)C1CCC2C1 (stereo not shown) [9-Amino-1,4-methano-1,2,3,4-tetrahydroacridine]",IC50,93 nM
